Assay: CNS pharmacokinetic study in mice (microdialysis, CE-UV)
Assay type: in vivo, C57BL/6J mice
Settings: male, C57BL/6J, mouse, CSF (lateral ventricle microdialysate) / serum, ip, 2.5 mg/kg i.p., read-out: CNS penetration (CSF-to-serum AUC ratio)
Procedure: The total of 90 male wild type C57BL/6J mice were used in this study. C57BL/6J mice were approximately 2 months of age and weighed 20˜25 g. All mice were housed in a temperature-controlled room ([…]) with a 12:12 light dark cycle (lights on at 0600). Purina 5001 Rodent Chow and tap water were available ad libitum at all times. Mouse use was approved by Mayo Foundation Institutional Animal Use and Care Committee (IACUC) and was consistent with NIH Guide for the Care and Use of Laboratory Animals. Agelastatin A was synthesized by Professor Takehiko Yoshimitsu at Graduate School of Pharmaceutical Sciences, Osaka University, Osaka, Japan. Professor Yoshimitsu has described details on the synthesis of this compound. Purity as determined by NMR spectra is >99%.
A total of five mice were used in microdialysis experiments. On the day of surgery, mice were anesthetized with gasiform isoflurane (1% isoflurane in a mixture of 20% oxygen and 80% nitrogen gas) and immobilized in a stereotaxic frame (KOPF Instruments, Tujunga, Calif.). Anesthesia was maintained during the entire procedure. […]
Agelastatin A in the microdialysate, serum, brain and eye tissues was measured by CE-UV (Agilent 3D CE). […] The absorbance from Agelastatin A was detected with UV at 280 nanomoles. […] CNS penetration was determined as the ratio of CSF and blood area under the curve (AUC).

In the case of `CN1C(=O)N[C@H]2[C@@H]3NC(=O)c4ccc(Br)n4[C@@H]3C[C@]21O` [AA, agelastatin A, reference compound], the Kp is reported as 0.101.

— US9464093B2, “Substituted imidazo[4',5':4,5]cyclopenta[1,2-e]pyrrolo[1,2-a]pyrazines and oxazolo[4',5':4,5]cyclopenta[1,2-e]pyrrolo[1,2-a]pyrazines for treating brain cancer” (Mayo Foundation for Medical Education and Research, priority 2012, dated 2016)
